An excerpt weighted towards active compounds, which were near 16% of everything screened.
miR-21 reporter – miR-21 reporter, rising signal; HeLa miR-21 FLuc reporter, luciferase, 48 h; Potency, µM (titrated, usually from 38.3 µM), for the others: at the top dose reporter change, positive = more light; 340,000 tested, under 10 active; AID 2288; active = well fitted rising curve with a large enough effect; inconclusive = small, poorly fitted or top-dose-only effect; inactive = no such curve, though single readings can be large or run the other way;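 also: % of control where 0% means no effect; miR-21 action dims this reporter so a rising signal means less miR-21 action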
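HeLa miR-21-FLuc reporter line, endogenous miR-21; 2000 cells/well in DMEM/10% FBS; compound titration up to ~40uM final, 48 h, 37 degree Celsius; luciferase detection reagent, 15 min lysis, CCD luminescence.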
uPA generation – blocks generation of uPA at the cell surface. cell surface uPA generation assay, qHTS. Potency, µM (highest dose often 38.3 µM), without a hit: top-dose activity change, negative = inhibition, most hits filed as inhibitors. 330,000 tested, 0.31% active. AID 540303; active = well fitted inhibition curve with a large enough effect; inconclusive = small, poorly fitted or top-dose-only effect; inactive = no such curve, though single readings can be large or run the other way; tested in mouse RAW 264.7 cells; note: potency is the fitted concentration of half-maximal effect; % is set by controls: 0 for no effect and ±100 for the full control effect; nearly all actives have a fitted effect of over 55% in size
TDP1 cell CPT – DT40-hTDP1 cell growth loss with CPT. chicken DT40 Tdp1-/-;hTDP1 cells + 20 nM CPT, ATP luminescence, 48 h. Potency, µM (titrated, usually from 46.2 µM), for inactives: top-dose activity change, negative = growth inhibition, usual class: inhibitors. 420,000 tested, 12% active. AID 686979; note: potency is the fitted concentration of half-maximal effect; % is set by controls: 0 for no effect and ±100 for the full control effect; nearly all actives have a fitted effect of over 55% in size
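Chicken DT40 Tdp1-/- cells complemented with human TDP1, 400 cells/well, exposed to compounds plus 20 nM camptothecin for at least 48 h at 37 C; viability read as ATP content by CellTiter-Glo luminescence.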
TDP1 inh – TDP1 (human) enzyme inhibition. Q9NUW8. recombinant TDP1, AlphaScreen DNA substrate cleavage. Potency, µM (highest dose often 130 µM), without a hit: at the top dose activity change, negative = inhibition, hits mostly inhibitors. 350,000 tested, 0.28% active; note: potency is the fitted concentration of half-maximal effect; % is set by controls: 0 for no effect and ±100 for the full control effect; nearly all actives have a fitted effect of over 40% in size
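AlphaScreen read-out: signal falls as enzyme removes the 3' tyrosine-FITC from a 5'-biotinylated DNA oligo (15 nM, 5 min, RT). Enzyme was E. coli-made recombinant Tdp1 at 1 nM, exposed to compound for 15 min beforehand; beads 10 ug/ml, 10 min.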
TDP1 cell noCPT – qHTS for Inhibitors of human tyrosyl-DNA phosphodiesterase 1 (TDP1): qHTS in cells in absence of CPT | DT40 Tdp1-/- hTDP1 cells, no CPT, ATP luminescence, 48 h | Potency, µM (series often up to 46.2 µM), inactives show top-dose activity change, negative = growth inhibition, usual class: inhibitors | 420,000 tested, 15% active; note: potency is the fitted concentration of half-maximal effect; % is set by controls: 0 for no effect and ±100 for the full control effect; nearly all actives have a fitted effect of over 55% in size
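Growth of hTDP1-complemented DT40 Tdp1-knockout cells is measured by ATP luminescence after at least 48 hr compound exposure at 37 °C, with DMSO substituting for the 20 nM CPT used in the parallel screen.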
An asterisk follows results filed as active; u = inconclusive; x = not tested or not shown. Unless noted, calls come from the whole dose curve; as a rule, active = well fitted curve in the direction sought with a large enough effect; inconclusive = small, poorly fitted or top-dose-only effect, or another doubt; inactive = no such curve, though single readings can be large; an effect the other way counts as inactive or inconclusive.

SMILES	miR-21 reporter	uPA generation	TDP1 cell CPT	TDP1 inh	TDP1 cell noCPT
Cc1ccc(S(=O)(=O)N2CCN(c3nc(C)nc4sc(C)c(C)c34)CC2)cc1	1%	x	x	0%	x
COc1ccc(-c2csc3ncnc(N4CCN(S(=O)(=O)c5ccc(C)cc5)CC4)c23)cc1	x	11%	u	1%	15µM*
Cc1sc2ncnc(N3CCN(S(=O)(=O)c4ccc(C(C)(C)C)cc4)CC3)c2c1C	x	u	9.2µM*	4%	3.3µM*
COc1ccc(S(=O)(=O)N2CCN(c3nn(C)c(=O)n(C)c3=O)CC2)cc1	x	8%	u	0%	16µM*
COc1ccc(-c2csc3ncnc(N4CCN(S(=O)(=O)c5cccs5)CC4)c23)cc1	x	3%	u	-7%	u
Cc1csc2ncnc(N3CCN(S(=O)(=O)c4cccc(C(F)(F)F)c4)CC3)c12	4%	u	9.2µM*	2%	3.7µM*
Cc1ccc(-c2csc3ncnc(Oc4cccc5ccc(C)nc45)c23)cc1	0%	-6%	u	-3%	21µM*
Cc1ccc(S(=O)(=O)N2CCN(C(=O)C3CCN(c4ncnc5sc(C)c(C)c45)CC3)CC2)c(C)c1	x	18%	8.2µM*	x	3.7µM*
O=S(=O)(c1ccc(Oc2ccccc2)cc1)N1CCOCC1	-1%	x	-5%	2%	-18%
O=S(=O)(c1ccc(Oc2ncnc3scc(-c4ccccc4)c23)cc1)N1CCOCC1	10%	-6%	23µM*	4%	18µM*
Cc1ccc2cccc(Oc3ncnc4sc(C)c(C)c34)c2n1	-4%	-4%	-22%	5%	u
COc1ccc(-c2csc3ncnc(N4CCN(S(=O)(=O)c5ccc(Cl)s5)CC4)c23)cc1	x	9%	u	x	29µM*

In the list so far, two have a halogen.
SMILES	miR-21 reporter	uPA generation	TDP1 cell CPT	TDP1 inh	TDP1 cell noCPT
Cc1csc2ncnc(N3CCN(S(=O)(=O)c4cccc(C(F)(F)F)c4)CC3)c12	4%	u	9.2µM*	2%	3.7µM*
COc1ccc(-c2csc3ncnc(N4CCN(S(=O)(=O)c5ccc(Cl)s5)CC4)c23)cc1	x	9%	u	x	29µM*

(listing goes on)
SMILES	miR-21 reporter	uPA generation	TDP1 cell CPT	TDP1 inh	TDP1 cell noCPT
COc1ccccc1CNC(=O)Cc1cc(=O)[nH]c(=O)[nH]1	-3%	12%	17%	1%	-3%
COc1ccc(C(=O)NCN2CCN(c3ccccc3)CC2)cc1OC	x	1%	-1%	4%	-5%
CC(=O)Nc1cccc(Oc2ncnc3scc(-c4ccccc4)c23)c1	3%	-8%	u	3%	10µM*
COc1ccccc1OCC(=O)NNC(=S)NC(=O)c1ccco1	1%	-4%	u	13%	18µM*
COc1ccc(C(=O)NC(=S)NNC(=O)c2ccccc2O)cc1	27%	-11%	15µM*	x	12µM*
O=C(NC(=S)NC12CC3CC(CC(C3)C1)C2)c1ccc(F)cc1	x	6%	u	7%	23µM*
COc1ccc(C(=O)NC(=S)NNC(=O)c2ccco2)cc1	-1%	-4%	18µM*	0%	21µM*
COc1ccc(C(=O)NC(=S)NNC(=O)c2ccccc2C)cc1	x	0%	u	x	u
CC(/C=N/NC(=O)CSc1nc2ccccc2n1C)=C\c1ccco1	3%	-5%	u	5%	u
COc1ccc(C(=O)NC(=S)NNC(=O)COc2ccccc2)cc1	2%	-3%	15µM*	8%	u
CC1(C(=O)NC(=S)NNC(=O)c2ccncc2)CCCCC1	15%	-1%	13µM*	0%	16µM*
Cc1ccc(C(=O)NC(=S)NNC(=O)COc2ccc([N+](=O)[O-])cc2)cc1	-33%	12%	u	0%	15µM*

One compound at a time, from the list above.
COc1ccc(C(=O)NCN2CCN(c3ccccc3)CC2)cc1OC in the list: miR-21 reporter: x; uPA generation: 1%; TDP1 cell CPT: -1%; TDP1 inh: 4%; TDP1 cell noCPT: -5%
COc1ccccc1CNC(=O)Cc1cc(=O)[nH]c(=O)[nH]1 in the list: miR-21 reporter: -3%; uPA generation: 12%; TDP1 cell CPT: 17%; TDP1 inh: 1%; TDP1 cell noCPT: -3%

More results:
SMILES	miR-21 reporter	uPA generation	TDP1 cell CPT	TDP1 inh	TDP1 cell noCPT
O=C(NNC(=S)NC(=O)C12CC3CC(CC(C3)C1)C2)c1ccncc1	16%	-26%	u	5%	u
O=C(NCCNC(=O)c1ccco1)c1ccc(F)cc1	-2%	4%	8%	5%	7%
O=C(NC(=S)NNC(=O)c1ccco1)c1ccc(F)cc1	0%	-1%	u	4%	16µM*
COC(=O)N(NC(=O)C(O)(CCC(C)C)CCC(C)C)c1ccccc1	3%	-20%	-6%	5%	-1%
O=C(NNC(=O)c1ccc(F)cc1)c1ccncc1	-4%	-8%	4%	x	7%
O=C(NNC(=S)NC(=O)c1ccc(F)cc1)c1ccncc1	x	0%	18µM*	4%	23µM*
COc1ccc(C(=O)NNC(=S)NC(=O)C(C)(C)C)cc1	17%	-2%	6.5µM*	14%	7.3µM*
Oc1ccccc1C1C=C(c2ccc3c(c2)OCO3)NC(c2c(F)cccc2Cl)N1 (stereo not given)	x	x	x	3%	x
COc1cccc(C2=NC(C)(C)NC(c3ccccc3O)C2)c1 (stereo not given)	-43%	0%	15µM*	5%	18µM*
CCC1(C)N=C(c2ccc3c(c2)OCO3)CC(c2ccccc2O)N1 (stereo not given)	-19%	-16%	13µM*	7%	13µM*
O=C(Cn1c(=O)n(Cc2nc(-c3ccccc3)no2)c(=O)c2cc3c(cc21)OCO3)Nc1ccccc1	7%	x	-21%	3%	u
CC(NC(=O)C1CCN(S(=O)(=O)c2ccc3c(c2)oc(=O)n3C)CC1)c1ccccc1 (stereo not given)	1%	x	-24%	1%	-29%
CCc1cc2c(Sc3nc4ccccc4s3)ncnc2s1	20%	u	5.2µM*	0%	9.2µM*
c1ccc2sc(Sc3ncnc4sccc34)nc2c1	1%	-17%	5.8µM*	5%	2.9µM*
COc1ccc(O)c(/C=N/NC(=O)c2cccc(N3CCCC3=O)c2)c1	8%	-2%	5.2µM*	13%	3.3µM*
COc1ccc(O)c(/C=N/NC(=O)c2ccc(N3CCCC3=O)cc2)c1	24%	-6%	13µM*	5%	23µM*
O=C(N/N=C/c1cc(Br)ccc1O)c1cccc(N2CCCC2=O)c1	11%	-9%	1.6µM*	0%	4.6µM*
Cc1c(OCC(=O)N2CCC(C(N)=O)CC2)ccc2c3c(c(=O)oc12)CCC3	-1%	6%	7%	x	-21%
CCSc1nnc(NC(NC(C)=O)(C(F)(F)F)C(F)(F)F)s1	-3%	4%	-3%	5%	1%
CCOC(=O)C(C)Oc1ccc2c(C)cc(=O)oc2c1C(C)=O (stereo not given)	-3%	x	-4%	0%	-3%
Cc1ccc(C)c(CN2CCCN(Cc3cc(C)ccc3C)S2(=O)=O)c1	0%	0%	u	2%	9.2µM*
Cc1ccc(CN2CCCN(Cc3cc(C)ccc3C)S2(=O)=O)cc1	-1%	9%	-12%	x	13%
O=C(COc1cccc2ccccc12)NNC(=O)c1cnccn1	1%	-8%	u	8%	16µM*
O=C(COc1ccc2ccccc2c1)NNC(=O)c1cnccn1	-1%	0%	23µM*	-8%	23µM*
COc1ccccc1C(=O)Nc1ccc(S(=O)(=O)N(C)c2ccccc2)cc1	x	12%	u	x	u
COc1ccc(CNC(=O)COC(=O)/C=C/c2cccc(Cl)c2)cc1	x	3%	-3%	0%	-4%

Bioassay records from PubChem BioAssay.
